These results are taken from BindingDB's records for doi:10.1021/jm00147a037 (1985).

By UniProt entry, the sequences of proteins in these tests, tags left out.
UniProt Q28044, whole entry: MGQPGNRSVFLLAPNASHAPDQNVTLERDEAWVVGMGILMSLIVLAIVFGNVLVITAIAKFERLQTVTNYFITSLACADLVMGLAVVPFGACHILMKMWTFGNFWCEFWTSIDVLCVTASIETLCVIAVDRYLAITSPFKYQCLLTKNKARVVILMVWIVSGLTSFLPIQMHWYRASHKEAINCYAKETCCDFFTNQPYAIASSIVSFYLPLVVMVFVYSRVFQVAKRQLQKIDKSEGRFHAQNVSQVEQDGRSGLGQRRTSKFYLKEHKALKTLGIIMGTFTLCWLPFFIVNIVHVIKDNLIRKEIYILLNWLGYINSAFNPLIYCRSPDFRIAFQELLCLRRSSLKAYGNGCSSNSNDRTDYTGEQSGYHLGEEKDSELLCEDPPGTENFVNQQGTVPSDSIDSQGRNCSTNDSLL

Molecules are shown by their SMILES.

In this assay the target is Beta-2 adrenergic receptor (Bos taurus, UniProt Q28044).

With `CC(C)(C)NCC(O)c1cc(Cl)c(N)c(Cl)c1` (stereo unspecified) [Planipart], the Kd (usually the free concentration of one partner at which half of the binding sites on the other are occupied at equilibrium, for simple one-to-one binding) amounted to 18 nM.
